Literature values, collected in PMC10855341, “Inhibition of Apoptosis in a Model of Ischemic Stroke Leads to Enhanced Cell Survival, Endogenous Neural Precursor Cell Activation and Improved Functional Outcomes” (International Journal of Molecular Sciences, 2024).

Settings: cited from earlier work

Substance: zVAD-fmk
- penetration into the brain: poor penetration into the brain
